Measurements published in paper PMC11106956, “Population pharmacokinetics of primaquine and its metabolites in African males” (Malaria Journal, 2024).

Assays:
[1] = test system: haemoglobin levels; experiment: Linear regression of pharmacokinetic parameters against change in haemoglobin; haemoglobin follow-up to 28 days; type: in vivo, human (African males, Mali); conditions: slope (95% CI)
[2] = single oral PQ 0.40-0.50 mg/kg
[3] = test system: methaemoglobin levels; experiment: Linear regression of pharmacokinetic parameters against change in methaemoglobin; type: in vivo, human (African males, Mali); conditions: slope (95% CI)
[4] = G6PD-deficient individuals (n = 18)
[5] = G6PD-normal individuals (n = 10)
[6] = typical individual 62.5 kg, metabolites dosed as PQ molar dose 1:1

Primaquine carbamoyl-glucuronide
Correlation (regression slope) of AUC24 with change in haemoglobin [1, 4]: 3.91 (95% CI: -82.1 to 89.9) p = 0.924 % HB change per 1 ng·hr/mL | Correlation (regression slope) of CMAX with change in haemoglobin [1, 4]: 73.3 (95% CI: -90.1 to 237) p = 0.356 % HB change per 1 ng/mL | Correlation (regression slope) of CMAX with change in haemoglobin [1, 5]: -0.377 (95% CI: -127 to 127) p = 0.995 % HB change per 1 ng/mL | Half-life (terminal elimination) ([2]; median (range) in Table 3, n = 28): 17.5 (11.1–28.0) h | AUC24, area under the concentration-time curve up to 24 h ([2]; median (range), n = 28): 1240 (242–3100) h × ng/mL | CMAX, maximum concentration ([2]; median (range), n = 28): 1550 (246–7320) ng/mL | TMAX, time to maximum concentration ([2]; median (range), n = 28): 1.61 (0.572–1.78) h | MTT, absorption mean transit time, population estimate (%RSE) ([2]; typical individual 62.5 kg, each compound modelled separately): 1.13 (8.84%) h | CL/F, apparent elimination clearance, population estimate (%RSE) [2, 6]: 2.83 (15.8%) L/h | VC/F, apparent volume of distribution of the central compartment, population estimate (%RSE) [2, 6]: 55.4 (12.4%) L | Correlation (regression slope) of AUC24 with change in methaemoglobin [3, 4]: -961 (95% CI: -3904 to 1982) p-value = 0.490 % mHB change per 1 ng·hr/mL | Correlation (regression slope) of CMAX with change in methaemoglobin [3, 4]: -3071 (95% CI: -8834 to 2691) p-value = 0.268 % mHB change per 1 ng/mL | Correlation (regression slope) of AUC24 with change in methaemoglobin [3, 5]: 1396 (95% CI: -2851 to 5643) p-value = 0.413 % mHB change per 1 ng·hr/mL | Correlation (regression slope) of CMAX with change in methaemoglobin [3, 5]: 922 (95% CI: -3823 to 5667) p-value = 0.618 % mHB change per 1 ng/mL
